Experimental data as given in PubChem BioAssay AID651647 (Sanford-Burnham Center for Chemical Genomics, 2012).
The entries are a selection whose mix differs from that of the whole data set. Activity calls are given as the source filed them.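 Rule for the calls: active = GFP/RFP ratio change of at least 30% with cell ATP level not reduced by more than half and red fluorescence within 50% of control; inactive = the rest, inconclusive results apart.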

Molecular target: Matrix metalloproteinase-14 (Homo sapiens) (UniProt P50281)
Test: blockers of MT1-MMP proenzyme processing, primary screen, HT1080 RFP-PRO-GFP cells, GFP/RFP fluorescence (AID 651647)
Details: overnight, at 20 µM, stronger effect = higher value, percent of plate control window, DMSO zero
Procedure, shortened: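 system = RFP-PRO-GFP reporter HT1080 cells | dosing = 20 µM single dose, 1% DMSO | timing = overnight cell settling, then overnight compound exposure, 37 °C, 5% CO2 | read-out basis = GFP/RFP fluorescence ratio | controls = DMSO and RFP-L50D-GFP cell wells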

| Structure (SMILES) | GFP/RFP ratio change |
| --- | --- |
| CCC(=O)N(c1ccccc1)C1(COC)CCN(CCn2nnn(CC)c2=O)CC1 | inactive: 0.278% |
| CCC(=O)N(c1ccccc1)C1(COC)CCN(CCc2cccs2)CC1 | inactive: -4.07% |
